Assay results published in patent US20220233529A1, “COMBINATION THERAPY COMPRISING A2A/A2B INHIBITORS, PD-1/PD-L1 INHIBITORS, AND ANTI-CD73 ANTIBODIES” (Incyte Corporation, priority 2020, published 2022).

The chains behind the UniProt entries cited, without tags or fusion partners. Where a name states a change or a piece, a line headed by the entry shows the natural chain unless it says otherwise.
UniProt P29275, whole entry: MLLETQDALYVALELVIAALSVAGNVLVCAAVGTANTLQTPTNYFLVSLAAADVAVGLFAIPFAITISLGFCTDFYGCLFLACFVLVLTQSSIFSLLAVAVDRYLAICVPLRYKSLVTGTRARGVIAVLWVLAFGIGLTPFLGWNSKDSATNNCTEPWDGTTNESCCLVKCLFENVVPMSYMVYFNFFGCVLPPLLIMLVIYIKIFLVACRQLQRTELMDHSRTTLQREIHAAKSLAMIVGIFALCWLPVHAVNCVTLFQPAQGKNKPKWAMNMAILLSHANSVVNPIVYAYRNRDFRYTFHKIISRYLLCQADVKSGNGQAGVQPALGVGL

What was measured:
[1] = molecular target: Adenosine A2A Receptor (Homo sapiens, UniProt P29274); assay: A2A Tag-lite HTRF assay; conditions: read-out: A2A—Ki; Tag-lite Adenosine A2A labeled cells; fluorescent antagonist ligand 12.5 nM; tested form: TFA salt
[2] = molecular target: human adenosine A2B receptor (Homo sapiens, UniProt P29275); assay: Adenosine A2B Receptor cyclic AMP GS Assay; type: cell-based; conditions: read-out: A2B—cAMP_EC50; HEK-293 cells expressing human A2B; agonist NECA 12 nM; cAMP accumulation; tested form: TFA salt

N#Cc1cccc(-c2nc(N)n3nc(Cn4nnc(-n5cccn5)n4)nc3c2-c2ccncn2)c1
Ki [1]: < 10 nM
EC50 [2]: < 10 nM
